The list shows a part of the results. Potency and affinity values are given separately. Some of these compounds have results that are not shown, active ones among them. Active and inactive are the calls of the source. Rule as the data show it: inconclusive = inhibition above about 27% without an active follow-up result; inactive = below that.

The inhibition is the relative decrease from the control value, in per cent.

This assay in a line: H1N1 influenza NS1A inhibitors, functional cell based assay (AID 504329). As to conditions: percent inhibition, at 12.5 µM, hits give high values.
Regarding `O=C(NCC1(N2CCCCC2)CCCCC1)c1cc([N+](=O)[O-])ccc1Cl`, the inhibition is inactive: -1.01%.
As for `CN1[C@@H]2CC[C@H]1CC(OC(=O)C(O)(c1ccccc1)c1ccccc1)C2` (stereo not given in full), the figure is inactive: -18.8%; as for `CC(C)N1C(=O)CC2(CCN(CCOC(=O)C(O)(c3ccccc3)c3ccccc3)CC2)C1=O`, inactive: 2.75%; as for `COc1cc(SC)ccc1C(=O)NCC1(N(C)C)CCCCC1`, inactive: -3.54%.
Consider `CCN(CC)CC(C)C(C)OC(=O)C(O)(c1ccccc1)c1ccccc1` (stereo not given), for which the inhibition is inactive: -13%.
For `Cc1ccc(C(=O)NCC2(N3CCCCC3)CCCCC2)cc1` the value was inactive: -0.73%.
For `CN(C)C1CCCC1OC(=O)C(O)(c1ccccc1)c1ccccc1` (stereo not given) the value was inactive: -2.26%; for `CN(C)c1ccc(C(=O)NCC2(N(C)C)CCCCC2)cc1`, inactive: -2.86%; for `Cc1ccccc1C(=O)NCC1(N2CCCCC2)CCCCC1`, inactive: 7.29%.
As for `O=C(NCC1(N2CCCCC2)CCCCC1)c1cc(F)c(F)cc1Cl`, the figure is inactive: -6.35%; as for `C=CCN1CCN(CCOC(=O)C(O)(c2ccccc2)c2ccccc2)CC1`, inactive: -12.5%; as for `O=C(NCC1(N2CCCCC2)CCCCC1)c1cccc(Br)c1`, inactive: -0.27%.
Turning to `Cc1cc(C(=O)NCC2(N3CCCCC3)CCCCC2)ccc1[N+](=O)[O-]`, the inhibition is inactive: 0.35%.
As for `CCN1CCCC(OC(=O)C2(O)c3ccccc3C=Cc3ccccc32)C1` (stereo not given), the inhibition is inactive: -4.59%.
As for `COc1ccc(C(=O)NCC2(N(C)C)CCCCC2)cc1`, the inhibition was inactive: -6.86%.
Turning to `CN(C)C1(CNC(=O)c2ccc(Br)cc2)CCCCC1`, the inhibition was inactive: -2.51%.
For `COc1cc(C(=O)NCC2(N(C)C)CCCCC2)c([N+](=O)[O-])cc1OC` the value was inactive: -21.6%; for `COc1ccc(Cl)cc1C(=O)NCC1(N(C)C)CCCCC1`, inactive: -4.24%; for `COc1cccc(C(=O)NCC2(N3CCCCC3)CCCCC2)c1`, inactive: -4.9%.
With `O=C(NCC1(N2CCCCC2)CCCCC1)c1cccc(Cl)c1`, the inhibition was inactive: 1.13%.
For `O=C(OC1CN2CCC1CC2)C(CO)(c1ccccc1)c1ccccc1` (stereo not given), the inhibition is inactive: 1.87%.
For `COc1ccc(Br)c(C(=O)NCC2(N3CCCCC3)CCCCC2)c1` the value was inactive: 1.51%; for `CN(C)c1cccc(C(=O)NCC2(N(C)C)CCCCC2)c1`, inactive: -4.13%.
As for `O=C(OCCN1CCCC1)C(O)(c1ccccc1)c1ccccc1`, the figure is inactive: -3.92%; as for `CC(C)Oc1ccc(C(=O)NCC2(N(C)C)CCCCC2)cc1`, inactive: 0.8%.

Values taken from PubChem BioAssay AID504329 (Southern Research Specialized Biocontainment Screening …, 2011).
